Test [1] has as its system Mus musculus. The experiment in a line: Antinociceptive activity in ICR mouse assessed as thermal-stimulus induced tail flick latency at 1 to 10 mg/kg, sc measured up to 4 hrs relative to control. To be noted: dose mg/kg 1-10, route subcutaneous, strain ICR.
Test [2] concerns the target Kappa-type opioid receptor (Homo sapiens, UniProt P41145). Briefly: Agonist activity at human kappa opioid receptor transfected in CHO cell membranes assessed as stimulation of [35S]GTPgammaS binding after 60 mins by scintillation counting analysis. Background: Binding of GTPγS marks nucleotide exchange on a G protein.

By UniProt entry, the sequences of proteins in these tests, tags left out.
UniProt P41145, whole entry: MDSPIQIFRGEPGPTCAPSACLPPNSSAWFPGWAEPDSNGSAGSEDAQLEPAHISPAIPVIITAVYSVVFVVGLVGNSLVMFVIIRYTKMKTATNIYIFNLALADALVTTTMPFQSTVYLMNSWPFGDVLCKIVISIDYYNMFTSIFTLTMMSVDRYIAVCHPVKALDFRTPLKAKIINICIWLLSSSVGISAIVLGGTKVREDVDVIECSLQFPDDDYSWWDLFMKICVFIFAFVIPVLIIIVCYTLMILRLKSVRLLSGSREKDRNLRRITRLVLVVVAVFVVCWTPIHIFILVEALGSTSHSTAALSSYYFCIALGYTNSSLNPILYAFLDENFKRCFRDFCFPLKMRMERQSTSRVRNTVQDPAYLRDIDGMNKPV

Molecules are shown by their SMILES. A value given as a limit tells only on which side of the number the result lay.

Regarding `CCC1C(=O)N(C2CCN([C@H]3CC[C@@H]4CCCc5cccc3c54)CC2)c2ccccc21` (mixture of isomers), the MPE in test [1] was determined as 30%.

Broadly, the EC50 is the concentration that produces a half-maximal response. As for `CCC1C(=O)N(C2CCN(Cc3cccc4[nH]ccc34)CC2)c2ccccc21` (centres undefined), in test [2], the concentration giving a half-maximal response (EC50) is over 10 µM.

`CCC1C(=O)N(C2CCN(C3CCc4ccccc4C3)CC2)c2ccccc21` (centres undefined): in test [2], the concentration for a half-maximal effect (EC50) worked out at 0.153 µM.

`CCC1C(=O)N(C2CCN(CCC(c3ccccc3)c3ccccc3)CC2)c2ccccc21` (centres undefined): in test [2], the EC50 was over 10 µM.
